According to publication PMC7761830, “Structure-Based Virtual Screening of Ultra-Large Library Yields Potent Antagonists for a Lipid GPCR” (Biomolecules, 2020):
Like-named read-outs stand apart in the source and are kept apart here.

Target: T1, wild-type CysLT1R (Homo sapiens, UniProt Q9Y271)
T1 construct: expressed in transfected cells; host or cells: HEK293 (ATCC CRL-1573), transient transfection with Lipofectamine 3000
T1 sequence (Q9Y271 1-337): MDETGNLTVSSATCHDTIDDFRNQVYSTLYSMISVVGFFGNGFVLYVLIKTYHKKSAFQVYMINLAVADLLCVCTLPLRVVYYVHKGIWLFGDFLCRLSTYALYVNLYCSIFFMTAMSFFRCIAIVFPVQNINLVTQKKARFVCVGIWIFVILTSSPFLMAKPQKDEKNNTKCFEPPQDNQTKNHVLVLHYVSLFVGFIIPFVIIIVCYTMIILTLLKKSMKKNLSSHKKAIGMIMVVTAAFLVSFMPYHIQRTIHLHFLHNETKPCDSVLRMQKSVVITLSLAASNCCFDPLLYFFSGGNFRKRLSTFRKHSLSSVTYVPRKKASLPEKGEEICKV
Experiment: IP1 production assay, antagonist mode, co-stimulation with EC80 LTD4
Assay type: cell-based
Procedure: For this assay, we used the Cisbio IP-One kit as previously described. […] At 48 h post-transfection, the media was removed and the cells were washed with fresh Hank’s Balanced Salt Solution (HBSS). […] After compound stimulation, the cells were incubated for 1 h at 37 °C and stimulated with IP1-D2 and Ab-Crypt reagents in Lysis Buffer. The cells were then incubated at room temperature for an additional hour. […] Normalized data were plotted using either the three-parameter or four-parameter EC50/IC50 fits of GraphPad Prism 8 (San Diego). […] Data represent the means ± SEM of at least three independent experiments performed in quadruplicate.

A remaining activity at 30 µM (read-out: CysLT1R, % IP1 production at 30 µM, Mean) of 82.1% and a remaining activity at 30 µM (read-out: CysLT1R, % IP1 production at 30 µM, mean) of 82.1% were found for `O=C(O)c1cc(S(=O)(=O)N2CC=C(c3ccccc3)CC2)ccc1O` [BRI-12324] in this work.
